Test results as given in patent US12637413B2, “Fatty acid amide hydrolase (FAAH) cleavable prodrugs of thyromimetics and combination with peripherally restricted FAAH inhibitors” (Autobahn Therapeutics, Inc., priority 2021, dated 2026).

Assays:
[1] = tissue distribution (brain and plasma AUC) after single PO administration; assay type: in vivo; details: 100 μg/kg PO single, male C57BL/6 mouse, AUC 0-24 hr
[2] = brain and plasma concentration after 21 days of repeat administration, rat cuprizone model; details: 21 days repeat administration 30 or 100 μg/kg, 4 hours post-final dose
primary OPC cultures = experiment: oligodendrocyte progenitor cell (OPC) differentiation assay; details: read-out: oligodendrocyte differentiation EC50; 5 days, MBP staining normalized to total cell count

- Brain AUC [1]: 73.9 ng·h/mL
- brain exposure of active compound compared to prodrug [2]: enhanced brain exposure
Structure (SMILES): CC(C)c1c(O)ccc(Cc2c(Cl)cc(OCC(=O)O)cc2Cl)c1F
- EC50 (primary OPC cultures): 1.4 nM
